Experiments:
Rattus norvegicus [1] = experiment: Anticonvulsant activity in po dosed Sprague-Dawley albino rat assessed as inhibition of maximal electroshock-induced seizures after 0.5 hrs; format: functional
Summary of the method: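 Male albino Sprague-Dawley rats dosed orally; maximal electroshock seizures, protection scored as blockade of hind limb extension, tested at set times after dosing; ED50 in mg/kg from quantitative evaluation for active compounds.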

Rattus norvegicus [2] = species: Rattus norvegicus; experiment: Protective index, ratio of TD50 for Sprague-Dawley albino rat to anticonvulsant ED50 for Sprague-Dawley albino rat; format: functional
Summary of the method: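 Rat, oral: behavioral-toxicity TD50 divided by MES ED50, both in mg/kg.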

Rattus norvegicus [3] = experiment: Behavioral toxicity in po dosed Sprague-Dawley albino rat; format: organism-based; conditions: in vivo
Summary of the method: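 Oral dosing in male albino Sprague-Dawley rats with behavioral toxicity observation at set times after dosing, doses up to 500 mg/kg.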

SMILES	ED50 (Rattus norvegicus [1]) [mg/kg]	Ratio TD50/ED50 (Rattus norvegicus [2])	TD50 (Rattus norvegicus [3]) [mg/kg]
COC[C@@H](NC(C)=O)C(=O)NCc1ccc(OCc2ccccc2F)cc1	11	–	–
COC[C@@H](NC(C)=O)C(=O)NCc1ccc(OCc2ccc(F)cc2)cc1	5.8	>86	> 500

— ChEMBL document CHEMBL1157779, “Merging the structural motifs of functionalized amino acids and alpha-aminoamides: compounds with significant anticonvulsant activities” (J Med Chem, 2010)
